Assay results reported in US10975016B2, “Solvent compounds for use as glycol ether replacements” (TBF ENVIRONMENTAL TECHNOLOGY INC., priority 2017, dated 2021).

Experiment: Physical/chemical properties of XBC4 (GlykoSol)

CCCCOCCOC(=O)OCCOCCCC [XBC4, bis(2-ButoxyEthyl Carbonate)]
Lower Explosive Limit (LEL %): 0.40% | Upper Explosive Limit (UEL %): 7.31%
